# Ab-14 heavy chain CDR variants: yeast mating affinities

Source: Engelhart et al. 2022 (doi:10.1038/s41597-022-01779-4), MIT Lincoln Laboratory and A-Alpha Bio; data file from the FLAb repository.

Binding partner: SARS-CoV-2 spike HR2 peptide, sequence PDVDLGDISGINAS.

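Phage display of a naive human antibody library on the peptide gave the parent. Library AAYL49 holds single substitutions and randomly drawn double and triple substitutions in the CDRs. The assay is AlphaSeq: two haploid yeast populations carry antibody and antigen on their surface. After mating in shaken culture at 30 °C for 16 h, diploids were selected and their barcode pairs sequenced. Read counts were normalised to the haploid input and turned into Kd by a linear fit to BCL2-family pairs of known affinity, for each replicate. Each pool was mated in three replicate cultures.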

Parent: Ab-14, a human scFv built as VH, a (GGGGS)3 linker, VL. Only the CDRs of the heavy chain vary.
VH: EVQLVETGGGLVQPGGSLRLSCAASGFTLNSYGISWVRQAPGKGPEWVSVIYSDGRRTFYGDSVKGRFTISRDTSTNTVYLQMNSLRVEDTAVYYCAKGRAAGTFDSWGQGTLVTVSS
VL: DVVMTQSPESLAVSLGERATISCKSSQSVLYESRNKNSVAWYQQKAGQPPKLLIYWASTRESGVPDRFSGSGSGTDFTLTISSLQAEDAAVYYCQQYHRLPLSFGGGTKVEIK

Substitutions are numbered in sequence along the VH above, starting at 1 (not Kabat).
Affinities are written as log10 Kd with Kd in nM; a lower number is a better binder.
Averages over replicates are reported, and they cover detected replicates only.
An entry "ND" has no value in the source: the pair was not observed among the diploids in that replicate. This suggests poor binding but is not conclusive.
The list is sorted by this average, lowest first, undetected variants last.
Nonspecific signal, from three strains lacking the peptide, appeared in 15% of pairings of library AAYL49, centred on 4.06 (5% of these signals below 2.83); values are not corrected for it.

With G99R/A102H the result was 0.92, 0.96, 0.88 (mean 0.92).
With S63D/D106K the result was 1.36, 1.48, 1.46 (mean 1.43).
With G26Q/L29D the result was 1.69, 1.40, 1.65 (mean 1.58).
With G61H/V64A/A101T the result was 1.89, 1.17, 2.49 (mean 1.85).
With L29Y/Y32H/A101L the result was 1.82, 1.94, 2.13 (mean 1.97).
With T58H/F105P/S107W the result was 2.13, 2.45, 2.72 (mean 2.44).
With T28I/I34E/F105P the result was ND, 2.53, ND.
With I51F/R56P/A102W the result was ND, 2.57, ND.
With G26D/F105H the result was 3.42, 2.61, ND (mean 3.02).
With F27P/T28E/K65D the result was 2.57, 2.14, 4.61 (mean 3.11).
With S35W/S53G/T58F the result was 3.29, ND, ND.
With S53P/Y60W/A102D the result was ND, ND, 3.40.
With L29F/D106T the result was 3.51, ND, ND.
With T28L/D54I/R57T the result was 3.79, ND, ND.
With Y32W/G61W/A102S the result was 3.86, ND, ND.
With T58E/G99D/R100A the result was ND, 3.90, ND.
With S53Y/D54E/R56M the result was 4.21, 3.63, ND (mean 3.92).
With N30F/R57H the result was 3.94, ND, ND.
With R56G/G99C/A102E the result was 4.09, 2.96, 4.80 (mean 3.95).
With L29H/I51Y the result was ND, 3.47, 4.84 (mean 4.16).
With D54Q/T104E/D106V the result was ND, 3.75, 4.59 (mean 4.17).
With Y60I/D62L/F105H the result was 5.46, ND, 3.27 (mean 4.36).
With F27E/G61C the result was ND, 4.40, ND.
With S31C/T58P/G99Y the result was ND, 4.68, 4.33 (mean 4.50).
With R57W/V64F the result was ND, 4.52, ND.
With F27Q/N30G/D54W the result was 4.55, 4.49, ND (mean 4.52).
With S35M/Y52C the result was ND, 4.78, ND.
With I34F/A101D/F105K the result was ND, 5.18, ND.
With N30A/S35K/S53F the result was 5.47, ND, ND.
With Y32W/T104R/S107Y the result was 5.47, ND, ND.
With S63I/K65F the result was ND, ND, ND.
With G55I/D62V/A102D the result was ND, ND, ND.
With G26R/Y60G/T104K the result was ND, ND, ND.
With A101L/G103L/D106M the result was ND, ND, ND.
With N30K/I34G/S107H the result was ND, ND, ND.
With I34V/V50K/G61P the result was ND, ND, ND.
With D62R/G103Q/S107G the result was ND, ND, ND.
With G26T/V50N/A102Y the result was ND, ND, ND.
With I34E/R57G/F105V the result was ND, ND, ND.
With R57P/F59Q the result was ND, ND, ND.
With Y52N/G99I the result was ND, ND, ND.
With L29K/G61T/S107P the result was ND, ND, ND.
With G33D/S53E/F105S the result was ND, ND, ND.
With S35T/D54H/G61Q the result was ND, ND, ND.
With N30L/D54P/D106T the result was ND, ND, ND.
With V50D/K65N/A101S the result was ND, ND, ND.
With D54W/R56Y/R100N the result was ND, ND, ND.
With S31W/G55D/Y60E the result was ND, ND, ND.
With S53P/G55F/F105D the result was ND, ND, ND.

The closing 3 entries, repeated:

changes,"replicates, log10 nM","mean, log10 nM"
D54W/R56Y/R100N,"ND, ND, ND",ND
S31W/G55D/Y60E,"ND, ND, ND",ND
S53P/G55F/F105D,"ND, ND, ND",ND